Experiments:
[1] = system: AKRASAA
[2] = system: AKRASEA
[3] = system: AKRESAA
[4] = system: AKRPSAA
[5] = system: ARKASAA
[6] = system: ARRASAA
[7] = system: EKRASAA
[8] = system: KKRKSAA
[9] = system: PKRASAA
[10] = system: RKKKSAA

“purified catalytic subunit of cAMP-dependent protein kinase from bovine heart” showed a 32P incorporated [1] of 4.8 pmol/unit, a 32P incorporated, % (AKRASAA = 100) [1] of 100% and a 32P incorporated [2] of 3.6 pmol/unit. It also gave a 32P incorporated, % (AKRASAA = 100) [2] of 75%, a 32P incorporated [3] of 1.8 pmol/unit and a 32P incorporated, % (AKRASAA = 100) [3] of 38%. For the same substance, the 32P incorporated [4] was 10.3 pmol/unit, the 32P incorporated, % (AKRASAA = 100) [4] was 215% and the 32P incorporated [5] was 108 pmol/unit. For the same substance, the 32P incorporated, % (AKRASAA = 100) [5] was 2240%, the 32P incorporated [6] was 137 pmol/unit and the 32P incorporated, % (AKRASAA = 100) [6] was 2860%. It also gave a 32P incorporated [7] of 1.7 pmol/unit, a 32P incorporated, % (AKRASAA = 100) [7] of 4% and a 32P incorporated [8] of 19.8 pmol/unit. The 32P incorporated, % (AKRASAA = 100) [8] was 412%, the 32P incorporated [9] was 6.9 pmol/unit and the 32P incorporated, % (AKRASAA = 100) [9] was 144%. It also gave a 32P incorporated [10] of 5.4 pmol/unit and a 32P incorporated, % (AKRASAA = 100) [10] of 112%.

— US20030088057
